Results taken from patent US20160184446A1, “METHOD OF INHIBITING BODY CAVITY FLUID ACCUMULATION” (Toray Industries, Inc., priority 2012, published 2016).

What was measured:
[1] = tested on: gastric cancer peritoneal metastasis mouse models (GCIY-EGFP cells); test: Ascites accumulation in gastric cancer peritoneal metastasis mouse models, systemic (subcutaneous) administration; format: in vivo; conditions: subcutaneous (systemic), 5,000 U/mouse/dose, twice a week for 4 weeks; ascites collected 2 weeks after final administration; vs PBS control
Protocol: Gastric cancer peritoneal metastasis mouse models were produced by transplanting human gastric cancer cells, GCIY-EGFP cells, intraperitoneally into male KSN nude mice in the same manner as in Example 2.
Naturally occurring human interferon-β (FERON®; Toray Industries, Inc.), or PEG-IFN-β or PEG-mIFN-β prepared in Example 1 was administered subcutaneously into the dorsal areas (i.e., via systemic administration) of the gastric cancer peritoneal metastasis mouse models (n=6) in an amount of 5,000 U/mouse/dose. Administration was initiated on the day after transplantation and performed twice a week for 4 weeks. Phosphate buffer (PBS) was administered to the control group in the same manner. Ascites was collected from the gastric cancer peritoneal metastasis mouse models under anesthesia 2 weeks after the final administration and the liquid volume was measured.
The vertical axis represents the amount of ascites (median; mL). On the horizontal axis, “Control (PBS)” represents the result of the group of systemic administration of phosphate buffer (PBS) (control group), “IFN-β” represents the result of the group of systemic administration of naturally occurring human interferon-β, “PEG-IFN-β” represents the result of the group of systemic administration of PEG-IFN-β, and “PEG-mIFN-β” represents the result of the group of systemic administration of PEG-mIFN-β.

[2] = tested on: gastric cancer peritoneal metastasis mouse models (GCIY-EGFP cells); test: Ascites accumulation in gastric cancer peritoneal metastasis mouse models, topical (intraperitoneal) administration; format: in vivo; conditions: intraperitoneal (topical), 5,000,000 U/mouse/dose, once a week for 4 weeks; ascites collected a week after final administration
Protocol: Gastric cancer peritoneal metastasis mouse models were produced, and the effect of PEG-IFN-β to inhibit ascites accumulation by topical administration were evaluated in accordance with the method of Nakanishi et al. (Cancer Science, 2003, Vol. 94, pp. 112-118).
GCIY-EGFP cells prepared by introducing the pEGFP-C1 plasmid (Clontech) into the GCIY human gastric cancer cells (No. RCB0555) obtained from Cell Bank, RIKEN BioResource Center, were cultured and maintained using DMEM medium containing 10% fetal bovine serum in an incubator at 37° C. and 5% CO2. The GCIY-EGFP cells were collected with trypsin/EDTA and washed with a Hank's balanced salt solution (HBSS) to prepare a GCIY-EGFP cell suspension. […]
Naturally occurring human interferon-β (FERON®; Toray Industries, Inc.) or PEG-IFN-β prepared in Example 1 was administered intraperitoneally (i.e., topically) to gastric cancer peritoneal metastasis mouse models (n=8) in amounts of 5,000,000 U/mouse/dose. […] Ascites was collected from the gastric cancer peritoneal metastasis mouse models under anesthesia a week after the final administration, and the liquid volume was measured. […]

malignant ascites = conditions: cited from earlier work

B1: naturally occurring human interferon-β: Naturally occurring human interferon-β (FERON; Toray Industries, Inc.) (protein, UniProt P01574 22-187, looked up)
Interferon beta: MSYNLLGFLQRSSNFQCQKLLWQLNGRLEYCLKDRMNFDIPEEIKQLQQFQKEDAALTIYEMLQNIFAIFRQDSSSTGWNETIVENLLANVYHQINHLKTVLEEKLEKEDFTRGKLMSSLHLKRYYGRILHYLKAKEYSHCAWTIVRVEILRNFYFINRLTGYLRN
- accumulation of ascites (amount of ascites) [1]: not inhibited
- accumulation of ascites (amount of ascites) [2]: not inhibited

B2: PEG-IFN-β: one PEG molecule (molecular weight 42,000) covalently bound to the amino group of lysine 134 of recombinant human interferon-β (conjugate, listed as Homo sapiens)
chain: B1 Interferon beta
modifications: 42 kDa PEG on Lys134
- accumulation of ascites (amount of ascites) [1]: remarkably inhibited
- accumulation of ascites (amount of ascites) [2]: inhibited to a normal level

B3: interferon-β: unmodified interferon-β of literature clinical studies in malignant ascites (protein, listed as Homo sapiens)
chain: B1 Interferon beta
- response rate (malignant ascites; daily and topical administration at a dose of 18,000,000 units, Wakui et al.): less than 50%
- therapeutic effects in malignant ascites (malignant ascites; topical administration of 6,000,000 units at three times a week): has not yielded any substantial therapeutic effects
